Marks after values point to notes of the source that are not given here.

The source of these data is paper PMC4890124, “Antimicrobial activity, improved cell selectivity and mode of action of short PMAP-36-derived peptides against bacteria and Candida” (Scientific Reports, 2016).

Data set [1] has as its system human red blood cells (hRBCs). The experiment in a line: Hemolytic activity. It counts as cell-based. Conditions: human erythrocytes in PBS, 1 h at 37 °C, absorbance 570 nm, 0.1% Triton X-100 positive control; highest tested 128 μM; three independent experiments. Here is the method: The hemolytic activity of the peptides was measured as the amount of hemoglobin released by the lysis of human erythrocytes. The experimental protocol was reviewed and approved by the ethics committee of the Northeast Agricultural University Hospital, and the experimental method was carried out in accordance with the approved guidelines and regulations. Briefly, fresh and healthy human blood cells (hRBCs) in a polycarbonate tube containing heparin were centrifuged at 1,000 × g for 5 min at 4 °C. The erythrocytes obtained were washed three times and re-suspended in PBS. Then, the erythrocyte solution of 50 μl was incubated with 50 μl of the respective peptides dissolved in PBS for 1 h at 37 °C. Intact erythrocytes were pelleted by centrifugation at 1,000 × g for 5 min at 4 °C, and the supernatant was transferred to a new 96-well plate. Hemoglobin release was monitored using an absorbance microplate reader (TECAN GENios F129004; TECAN, Austria) at 570 nm. hRBCs in PBS and 0.1% Triton X-100 were employed as negative and positive controls, respectively. MHC was defined as the minimal peptide concentration that caused 5% hemolysis. Three independent experiments were performed in duplicate.

Data set [2] deals with Staphylococcus aureus ATCC 25923. It counts as cell-based. As to conditions: lowest concentration killing at least 99.9% of initial inoculum; three independent experiments. Here is the method:
The peptide antibacterial activity was determined against both gram-positive and gram-negative bacteria strains, including Escherichia coli ATCC 25922, Escherichia coli UB1005, Salmonella enterica serovar typhimurium C77-31, Staphylococcus aureus ATCC 29213, Staphylococcus aureus ATCC 25923, Bacillus subtilis CMCC 63501, and Staphylococcus epidermidis ATCC 12228. Clinically isolated Escherichia coli EC183 was provided by the 4th Affiliated Hospital of Harbin Medical University. MIC of the peptides was measured using a modified version of the National Committee for Clinical Laboratory Standards (NCCLS) broth microdilution method as described previously. The bacterial strains were inoculated and grown to mid-log phase in fresh Mueller-Hinton broth (MHB) at 37 °C. Bacterial inoculum suspensions were prepared at a final concentration of approximately 1 × 10^5 CFU/ml. Peptides were 2-fold serially diluted to make different concentrations, from 0.5 to 256 μM. Equal volumes of inoculum suspensions were then added to each well of a sterile 96-well plate with different concentrations of peptides, and the plate was incubated for 18 h at 37 °C. Broth with or without bacteria was employed as the positive control or the negative control, respectively. MIC was defined as the lowest concentration of peptides that prevented visible turbidity by visual inspection. […]

As to `CC[C@H](C)[C@H](NC(=O)CN)C(=O)NCC(=O)N[C@@H](C)C(=O)N[C@H](C(=O)N[C@@H](CC(C)C)C(=O)N[C@@H](CCCCN)C(=O)N[C@H](C(=O)N[C@@H](CC(C)C)C(=O)N[C@H](C(=O)N[C@H](C(=O)NCC(=O)N[C@@H](CC(C)C)C(=O)N1CCC[C@H]1C(=O)N[C@@H](C)C(=O)N[C@@H](CC(C)C)C(=O)N[C@H](C(=O)N[C@@H](CO)C(=O)N[C@@H](Cc1c[nH]c2ccccc12)C(=O)N[C@H](C(=O)N[C@@H](CCCCN)C(=O)N[C@@H](CCCNC(=N)N)C(=O)N[C@@H](CCCCN)C(=O)N[C@@H](CCCNC(=N)N)C(=O)N[C@@H](CCC(N)=O)C(=O)N[C@@H](CCC(N)=O)C(N)=O)[C@@H](C)CC)[C@@H](C)CC)[C@@H](C)O)[C@@H](C)O)C(C)C)C(C)C` [melittin, reference compound], the “MHC (minimum hemolytic concentration that caused 5% hemolysis)” value in data set [1] stood at 0.25 µM. Further, the “MBC S. aureus 25923” value in data set [2] is 8^c (8) μM.
